Results on one molecule are retold here after ChEMBL document CHEMBL4118142, “Novel amidrazone derivatives: Design, synthesis and activity evaluation” (Bioorg Med Chem, 2018).

Calls of active or inactive are those of the source. The rule behind the calls is not given here.

In this experiment the target is T1, Acid-sensing ion channel 1 (Rattus norvegicus) (UniProt P55926).
T1 sequence (whole entry): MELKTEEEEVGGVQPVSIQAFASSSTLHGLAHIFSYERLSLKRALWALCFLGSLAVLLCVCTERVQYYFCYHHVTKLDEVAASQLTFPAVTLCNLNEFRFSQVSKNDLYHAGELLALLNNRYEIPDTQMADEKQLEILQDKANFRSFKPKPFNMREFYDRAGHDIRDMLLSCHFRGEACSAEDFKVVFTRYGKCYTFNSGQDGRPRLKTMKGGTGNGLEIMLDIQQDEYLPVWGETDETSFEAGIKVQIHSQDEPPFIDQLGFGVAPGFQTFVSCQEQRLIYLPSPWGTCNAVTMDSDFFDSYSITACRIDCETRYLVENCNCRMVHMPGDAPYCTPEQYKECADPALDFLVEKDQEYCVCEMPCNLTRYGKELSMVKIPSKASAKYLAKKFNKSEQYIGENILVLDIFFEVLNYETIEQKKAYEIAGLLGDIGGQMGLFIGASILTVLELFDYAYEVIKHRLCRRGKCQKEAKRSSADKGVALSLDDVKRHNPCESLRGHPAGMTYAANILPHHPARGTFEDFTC
The experiment is described as follows: Inhibition of acid-induced ASIC1a protein expression in rat articular chondrocytes at 100 uM pretreated for 24 hrs followed by acid medium stimulation at pH 6 for 3 hrs by Western blot analysis. The experiment is classed as cell-based. A digest of the protocol:
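Freshly isolated primary rat articular chondrocytes were cultured in DMEM with 10% FBS at 37 °C and 5% CO2. They were pretreated with compound for 24 h at pH 7.4, then exposed to pH 6.0 medium for 3 h, with cells kept at pH 7.4 as control. After PBS washes, lysates were immunoblotted for ASIC1a against a β-actin internal control. Values are mean ± SD of three independent experiments.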

For the molecule `N=C(N)NC(=O)c1nc(Cl)c(N)nc1N` [AMILORIDE], the inhibition entry is “Active”.
